This is an account of results in patent publication US9522910B2, “Protein kinase inhibitors (variants), use thereof in treating oncological diseases and a pharmaceutical composition based thereon” (Obshchestvo s ogranichennoy otvetstvennostyou “Fusion …, priority 2011, dated 2016).

In the assay the test system is K562 human chronic myelogenous leukemia cells. The experiment in a line: Antiproliferative activity on K562 cells (MTT). Conditions: read-out: K562 IC50; compound concentration that causes 2-times reduction of viable cells; 3 days. As to the method:
Moreover, antiproliferative activity of the compounds of the present invention can be studied on K562 human chronic myelogenous leukemia cells.
Human myelogenous leukemia K562 cells K562 were cultivated in RPMI 1640 growth medium. K562 cells were transferred to 96-well plated in duplicated (final concentration 2×10^4 cells/ml) and testing compound solution in growth medium was added at different concentrations (final volume is 100 μl per well). Solid compounds were first dissolved in DMSO, then the solution was diluted with DMSO to necessary concentration, mixed with equal volume of growth medium and was transferred to cell plates. The final compound concentrations of compounds was 0.5 nM to 10 μM. DMSO at same percentage is used as control. After compound was incubated with cells for 3 days, the numbers of active cells are measured. It was achieved by removing old medium, addition of 100 μl of fresh medium and 20 μl MIT solution containing 5 mg/ml PBS. Plates was incubated for 2 h at 37° C., then 100 μl DMSO was added at each well and stirred for 1 min. Then the absorbance was measured at 570 nm and percent of proliferation inhibition related to the control (without testing compounds) was determined.

By IC50 is commonly meant the midpoint of a concentration-inhibition curve. In the case of `Cc1ccc(C(=O)Nc2ccc(CN3CCN(C)CC3)c(C(F)(F)F)c2)cc1C#Cn1cnc2ccccc21`, the IC50 is under 100 nM.
